Experiment: Solubility of testosterone in molten CIA systems
Details: Table 25: PEG 8000 33.3% / vitamin E TPGS 33.3% / lauroyl polyoxyl-32 glycerides 33.3%

## C[C@]12CC[C@H]3[C@@H](CCC4=CC(=O)CC[C@@]43C)[C@@H]1CC[C@@H]2O [Testosterone]
  Solubility of Testosterone in CIA, Theoretical: 114.1 mg/gm

Reference: US10821118B2, “Oral transmucosal drug delivery system” (ABON PHARMACEUTICALS, LLC, priority 2012, dated 2020)
